Assay results as given in patent US6727253B2, “Treatment of accidental extravasation of anthracyclines” (Antianthra APS, priority 1999, dated 2004).
Where two headings read alike, the source gives them in different places.

System: SC epirubicin induced wounds in mice
Settings: Example 8
[1] = epirubicin 4 mg/kg sc + ICRF-187 125 mg/kg IP
[2] = epirubicin 4 mg/kg sc + ICRF-187 250 mg/kg IP
[3] = epirubicin 4 mg/kg sc + ICRF-187 375 mg/kg IP

## C[C@@H](CN1CC(=O)NC(=O)C1)N1CC(=O)NC(=O)C1 [ICRF-187, (+)-1,2-bis(3,5-dioxopiperazinyl-1-yl)propane]
[1]
  Mean AUC: 147 mm^2 × days
  Mean DWw ± SEM: 18.5 ± 0.5 days
  Mean TTWw ± SEM: 5.5 ± 0.5 days
[2]
  Mean AUC: 134 mm^2 × days
  Mean DWw ± SEM: 19.5 ± 0.5 days
  Mean TTWw ± SEM: 5.0 days
[3]
  Mean AUC: 101 mm^2 × days
  Mean DWw ± SEM: 18.0 days
  Mean TTWw ± SEM: 5.0 days
Epirubicin 4 mg/kg sc, ICRF-187 125, 250 or 375 mg/kg IP, AUC differences not statistically significant
  AUCs and ulcer rates, dose dependence: trend towards a dose-dependent beneficial effect
